Reference: patent US20030224978A1, “Compounds and methods for modulating apoptosis” (McGill University, priority 1996, published 2003)

Legend:
HUVEC = assay type: cell-based, human; conditions: 3 h
Procedure: (§1) N-Ac-CHAVC-NH2 (SEQ ID NO:10) and the control peptide N-Ac-CHGVC-NH2 (SEQ ID NO:20) were evaluated for possible cytotoxic effects on human microvascular endothelial (HMVEC; Clonetics), human umbilical vein endothelial (HUVEC; ATCC #CRL-1730), IAFp2 (human fibroblast cell line; Institute Armand-Frapier, Montreal, Quebec), WI-38 (human fibroblast cell line; ATCC #CCL-75), MDA-MB231 (human breast cancer cell line; ATCC #HTB-26), and PC-3 (human prostate cancer cell line; ATCC #CRL-1435) cells utilizing the MTT assay (Plumb et al., Cancer Res. 49:4435-4440, 1989). Neither of the peptides was cytotoxic at concentrations up to and including 100 μM. Similarly, neither of the peptides was capable of inhibiting the proliferation of the above cell lines at concentrations up to 100 μM, as judged by ^3H-thymidine incorporation assays.

MDA-MB231 = assay type: cell-based, human; conditions: 3 h
Procedure: as §1

IC50 (MDA-MB231): > 100 µM
SMILES: CC(=O)N[C@H]1CCCCNC(=O)C[C@@H](C(N)=O)NC(=O)[C@H](C(C)C)NC(=O)[C@H](C)NC(=O)[C@H](Cc2c[nH]cn2)NC1=O
IC50 (HUVEC): > 100 µM
